Values joined by “and” are separate entries in the source; they are usually repeats but may differ in a detail not shown here. Equal values may be shown once. Read-outs that look alike come from different tables or passages of the source.
How the values were obtained:
[1] = biological target: CYP2C19 (Homo sapiens, UniProt P33261); test: CYP inhibition, CYP2C19; settings: read-out: CYP2C19 inhibition IC50; HLM, S-mepheytoin 35 μM
[2] = system: enriched kinases; test: Kinase Affinity Tool (KAT) chemical proteomics assay, cell lysate mix (K562, MV4-11, SN-N-BE2, COLO-205)
[3] = system: OVCAR3 cells; test: Effect on cell cycle / DDR signaling, immunoblotting; settings: OVCAR3, 24 h
[4] = system: SKOV3 PKMYT1 KO (B2); test: CellTiter-Glo growth inhibition, SKOV3 PKMYT1 KO (B2)
[5] = In vivo pharmacokinetics comparing formulations in SCID mouse, 300 mg/kg P.O.; settings: female SCID mice, P.O. 300 mg/kg
[6] = biological target: ACVRL1 (ALK1) (Homo sapiens, UniProt P37023); test: Kinase profiling, Lantha
[7] = biological target: AMPK (A1/B1/G2) (Homo sapiens, UniProt Q13131); test: Kinase profiling, Lantha; settings: 1 μM, KmATP
[8] = biological target: AMPK (A1/B1/G3) (Homo sapiens, UniProt Q13131); test: Kinase profiling, Lantha; settings: 1 μM, KmATP
[9] = biological target: CAMKK1 (Alpha) (Homo sapiens, UniProt Q8N5S9); test: Kinase profiling, Lantha; settings: 1 μM, KmATP
[10] = biological target: CASK (Homo sapiens, UniProt O14936); test: Kinase profiling, Lantha; settings: 1 μM, KmATP
[11] = biological target: CDC7/DBF4 (Homo sapiens, UniProt O00311); test: Kinase profiling, Lantha; settings: 1 μM, KmATP
[12] = biological target: CDK16(PCTK1)/cyclinY (Homo sapiens, UniProt Q00536); test: Kinase profiling, Lantha; settings: 1 μM, KmATP
[13] = biological target: CDK5 (Inactive) (Homo sapiens, UniProt Q00535); test: Kinase profiling, Lantha; settings: 1 μM, KmATP
[14] = biological target: CDK8/cyclin C (Homo sapiens, UniProt P49336); test: Kinase profiling, Lantha; settings: 1 μM, KmATP
[15] = biological target: EIF2AK2 (PKR) (Homo sapiens, UniProt P19525); test: Kinase profiling, Lantha; settings: 1 μM, KmATP
[16] = biological target: EPHA7 (Homo sapiens, UniProt Q15375); test: Kinase profiling, Lantha; settings: 1 μM, KmATP
[17] = biological target: LIMK1 (Homo sapiens, UniProt P53667); test: Kinase profiling, Lantha; settings: 1 μM, KmATP
[18] = biological target: MAP2K1 (MEK1) (Homo sapiens, UniProt Q02750); test: Kinase profiling, Lantha; settings: 1 μM, KmATP
[19] = biological target: MAP2K4 (MEK4) (Homo sapiens, UniProt P45985); test: Kinase profiling, Lantha; settings: 1 μM, KmATP
[20] = biological target: MAP2K5 (MEK5) (Homo sapiens, UniProt Q13163); test: Kinase profiling, Lantha; settings: 1 μM, KmATP
[21] = biological target: MAP3K10 (MLK2) (Homo sapiens, UniProt Q02779); test: Kinase profiling, Lantha; settings: 1 μM, KmATP
[22] = biological target: MAP3K5 (ASK1) (Homo sapiens, UniProt Q99683); test: Kinase profiling, Lantha; settings: 1 μM, KmATP
[23] = biological target: MAP3K7/MAP3K7IP1 (Homo sapiens, UniProt O43318); test: Kinase profiling, Lantha; settings: 1 μM, KmATP
[24] = biological target: MAP4K3 (GLK) (Homo sapiens, UniProt Q8IVH8); test: Kinase profiling, Lantha; settings: 1 μM, KmATP
[25] = biological target: MAPK15 (ERK7) (Homo sapiens, UniProt Q8TD08); test: Kinase profiling, Lantha; settings: 1 μM, KmATP
[26] = biological target: MAPK9 (JNK2) (Homo sapiens, UniProt P45984); test: Kinase profiling, Lantha; settings: 1 μM, KmATP
[27] = biological target: MLK4 (Homo sapiens, UniProt Q5TCX8); test: Kinase profiling, Lantha; settings: 1 μM, KmATP
[28] = biological target: MYLK3 Hu Bind (Homo sapiens, UniProt Q32MK0); test: Kinase profiling, Lantha; settings: 1 μM, KmATP
[29] = biological target: NLK (Homo sapiens, UniProt Q9UBE8); test: Kinase profiling, Lantha; settings: 1 μM, KmATP
[30] = biological target: RIPK2 (Homo sapiens, UniProt O43353); test: Kinase profiling, Lantha; settings: 1 μM, KmATP
[31] = biological target: SLK Hu Bind (Homo sapiens, UniProt Q9H2G2); test: Kinase profiling, Lantha; settings: 1 μM, KmATP
[32] = biological target: STK17A (DRAK1) (Homo sapiens, UniProt Q9UEE5); test: Kinase profiling, Lantha; settings: 1 μM, KmATP
[33] = biological target: STK32C (YANK3) (Homo sapiens, UniProt Q86UX6); test: Kinase profiling, Lantha; settings: 1 μM, KmATP
[34] = biological target: STK33 (Homo sapiens, UniProt Q9BYT3); test: Kinase profiling, Lantha; settings: 1 μM, KmATP
[35] = biological target: STK39 (STLK3) (Homo sapiens, UniProt Q9UEW8); test: Kinase profiling, Lantha; settings: 1 μM, KmATP
[36] = biological target: TAOK3 (JIK) (Homo sapiens, UniProt Q9H2K8); test: Kinase profiling, Lantha; settings: 1 μM, KmATP
[37] = biological target: TLK2 (Homo sapiens, UniProt Q86UE8); test: Kinase profiling, Lantha; settings: 1 μM, KmATP

Chains of the proteins cited; added tags and fusions are not shown.
UniProt Q00536, whole entry: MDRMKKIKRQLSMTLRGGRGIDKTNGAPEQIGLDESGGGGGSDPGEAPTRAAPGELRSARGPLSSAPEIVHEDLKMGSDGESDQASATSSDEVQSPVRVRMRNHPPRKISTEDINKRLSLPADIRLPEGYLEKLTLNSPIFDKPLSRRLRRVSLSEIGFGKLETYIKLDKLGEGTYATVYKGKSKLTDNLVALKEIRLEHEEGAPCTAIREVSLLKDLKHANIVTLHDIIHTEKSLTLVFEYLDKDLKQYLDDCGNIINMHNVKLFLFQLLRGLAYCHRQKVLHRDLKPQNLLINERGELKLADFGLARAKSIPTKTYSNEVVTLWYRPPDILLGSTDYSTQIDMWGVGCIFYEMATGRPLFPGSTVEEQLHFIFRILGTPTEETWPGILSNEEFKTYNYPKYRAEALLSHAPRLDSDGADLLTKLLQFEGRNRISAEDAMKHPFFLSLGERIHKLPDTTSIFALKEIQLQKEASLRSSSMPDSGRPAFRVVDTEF
UniProt P49336, whole entry: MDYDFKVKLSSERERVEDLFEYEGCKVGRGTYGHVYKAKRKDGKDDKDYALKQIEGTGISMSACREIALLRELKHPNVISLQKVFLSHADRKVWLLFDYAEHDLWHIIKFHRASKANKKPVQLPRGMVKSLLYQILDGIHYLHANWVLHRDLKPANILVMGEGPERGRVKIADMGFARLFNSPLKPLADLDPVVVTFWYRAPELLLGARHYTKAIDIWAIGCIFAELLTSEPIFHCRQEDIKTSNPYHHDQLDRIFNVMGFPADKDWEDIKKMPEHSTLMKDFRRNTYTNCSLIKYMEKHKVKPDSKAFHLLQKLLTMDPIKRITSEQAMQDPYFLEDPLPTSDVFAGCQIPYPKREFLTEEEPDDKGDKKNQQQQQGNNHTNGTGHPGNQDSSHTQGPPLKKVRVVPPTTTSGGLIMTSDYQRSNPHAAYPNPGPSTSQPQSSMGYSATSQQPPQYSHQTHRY
UniProt Q13163, whole entry: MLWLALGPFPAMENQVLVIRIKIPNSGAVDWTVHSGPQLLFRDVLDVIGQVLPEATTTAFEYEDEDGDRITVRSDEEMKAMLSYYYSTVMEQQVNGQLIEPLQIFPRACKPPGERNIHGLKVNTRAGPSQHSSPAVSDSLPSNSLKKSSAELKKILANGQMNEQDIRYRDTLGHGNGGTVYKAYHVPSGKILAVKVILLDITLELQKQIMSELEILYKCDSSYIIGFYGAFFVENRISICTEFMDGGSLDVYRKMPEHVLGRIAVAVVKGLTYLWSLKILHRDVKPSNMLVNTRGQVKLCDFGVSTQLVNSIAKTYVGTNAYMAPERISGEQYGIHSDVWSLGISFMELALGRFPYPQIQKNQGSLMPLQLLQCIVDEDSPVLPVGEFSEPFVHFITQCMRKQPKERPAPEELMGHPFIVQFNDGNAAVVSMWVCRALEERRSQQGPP
UniProt Q02779, whole entry: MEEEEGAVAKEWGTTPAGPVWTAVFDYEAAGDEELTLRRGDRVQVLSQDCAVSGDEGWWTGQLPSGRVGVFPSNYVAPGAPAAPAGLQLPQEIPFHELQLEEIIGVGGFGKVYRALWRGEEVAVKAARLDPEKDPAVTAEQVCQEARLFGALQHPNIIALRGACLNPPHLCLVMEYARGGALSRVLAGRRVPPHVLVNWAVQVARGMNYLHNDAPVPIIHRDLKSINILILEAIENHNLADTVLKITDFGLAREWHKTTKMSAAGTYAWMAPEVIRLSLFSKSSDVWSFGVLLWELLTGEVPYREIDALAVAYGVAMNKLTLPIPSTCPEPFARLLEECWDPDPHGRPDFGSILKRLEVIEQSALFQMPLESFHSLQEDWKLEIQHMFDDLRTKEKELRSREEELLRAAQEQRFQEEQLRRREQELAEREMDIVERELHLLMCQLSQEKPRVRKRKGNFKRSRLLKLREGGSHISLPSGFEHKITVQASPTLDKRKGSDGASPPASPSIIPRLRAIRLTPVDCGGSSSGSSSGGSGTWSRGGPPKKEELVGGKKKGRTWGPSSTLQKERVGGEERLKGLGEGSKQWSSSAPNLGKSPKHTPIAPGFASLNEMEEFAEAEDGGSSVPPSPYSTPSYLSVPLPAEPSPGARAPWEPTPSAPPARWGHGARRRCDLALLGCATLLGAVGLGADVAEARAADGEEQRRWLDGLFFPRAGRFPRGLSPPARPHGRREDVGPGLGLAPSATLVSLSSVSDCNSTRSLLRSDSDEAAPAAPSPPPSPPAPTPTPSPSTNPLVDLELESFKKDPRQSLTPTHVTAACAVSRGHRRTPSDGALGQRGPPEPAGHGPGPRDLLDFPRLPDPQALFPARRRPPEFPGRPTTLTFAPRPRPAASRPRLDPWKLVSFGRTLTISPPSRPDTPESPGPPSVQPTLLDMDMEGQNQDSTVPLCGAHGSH
UniProt Q8IVH8, whole entry: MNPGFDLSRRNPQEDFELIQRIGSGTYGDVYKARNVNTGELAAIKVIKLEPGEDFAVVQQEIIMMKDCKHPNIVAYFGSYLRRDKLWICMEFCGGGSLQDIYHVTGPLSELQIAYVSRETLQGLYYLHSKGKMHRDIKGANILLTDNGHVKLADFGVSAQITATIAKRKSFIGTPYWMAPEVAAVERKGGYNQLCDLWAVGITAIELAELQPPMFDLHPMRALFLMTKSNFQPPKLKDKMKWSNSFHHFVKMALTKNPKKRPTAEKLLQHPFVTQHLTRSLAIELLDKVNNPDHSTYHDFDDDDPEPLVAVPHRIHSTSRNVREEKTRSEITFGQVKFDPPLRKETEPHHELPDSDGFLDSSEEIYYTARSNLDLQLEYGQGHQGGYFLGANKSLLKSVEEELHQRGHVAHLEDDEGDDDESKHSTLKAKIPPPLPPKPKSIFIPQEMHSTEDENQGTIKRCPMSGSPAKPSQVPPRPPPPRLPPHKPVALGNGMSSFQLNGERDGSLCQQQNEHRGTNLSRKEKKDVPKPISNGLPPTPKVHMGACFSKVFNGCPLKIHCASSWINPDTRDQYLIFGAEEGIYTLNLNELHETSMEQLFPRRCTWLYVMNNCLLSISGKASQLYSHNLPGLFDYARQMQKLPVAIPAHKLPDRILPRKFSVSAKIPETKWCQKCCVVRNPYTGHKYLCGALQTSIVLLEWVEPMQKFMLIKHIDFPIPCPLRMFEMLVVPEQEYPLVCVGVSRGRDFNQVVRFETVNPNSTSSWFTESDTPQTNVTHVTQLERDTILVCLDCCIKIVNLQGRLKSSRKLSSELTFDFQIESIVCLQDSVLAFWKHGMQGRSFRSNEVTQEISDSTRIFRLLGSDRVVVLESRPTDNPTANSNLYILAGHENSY
UniProt Q8TD08, whole entry: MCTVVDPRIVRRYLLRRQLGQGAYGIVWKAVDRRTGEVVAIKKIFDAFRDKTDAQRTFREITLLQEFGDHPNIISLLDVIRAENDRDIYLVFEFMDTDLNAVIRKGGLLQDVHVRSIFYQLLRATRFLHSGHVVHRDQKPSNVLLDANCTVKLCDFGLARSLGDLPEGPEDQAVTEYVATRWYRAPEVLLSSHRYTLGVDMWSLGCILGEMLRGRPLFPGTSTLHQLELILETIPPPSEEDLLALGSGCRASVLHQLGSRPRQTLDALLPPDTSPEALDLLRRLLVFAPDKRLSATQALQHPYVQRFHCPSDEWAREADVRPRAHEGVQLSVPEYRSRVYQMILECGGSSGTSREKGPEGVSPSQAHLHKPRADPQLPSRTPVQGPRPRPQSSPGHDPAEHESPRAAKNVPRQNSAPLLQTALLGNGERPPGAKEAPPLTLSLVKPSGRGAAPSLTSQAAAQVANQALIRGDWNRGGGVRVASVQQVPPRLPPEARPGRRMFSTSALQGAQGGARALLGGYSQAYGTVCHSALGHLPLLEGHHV
UniProt P45984, whole entry: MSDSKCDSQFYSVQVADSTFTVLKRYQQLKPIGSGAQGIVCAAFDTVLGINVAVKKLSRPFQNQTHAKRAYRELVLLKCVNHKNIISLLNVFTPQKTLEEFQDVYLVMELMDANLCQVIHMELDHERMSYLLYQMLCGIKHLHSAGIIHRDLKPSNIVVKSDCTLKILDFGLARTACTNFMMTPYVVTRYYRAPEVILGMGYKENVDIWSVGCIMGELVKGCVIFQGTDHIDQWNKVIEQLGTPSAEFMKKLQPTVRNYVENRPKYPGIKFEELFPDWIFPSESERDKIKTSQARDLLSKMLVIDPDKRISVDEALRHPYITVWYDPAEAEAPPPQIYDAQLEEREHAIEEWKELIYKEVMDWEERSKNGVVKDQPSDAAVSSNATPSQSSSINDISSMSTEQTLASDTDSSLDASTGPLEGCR
UniProt O43353, whole entry: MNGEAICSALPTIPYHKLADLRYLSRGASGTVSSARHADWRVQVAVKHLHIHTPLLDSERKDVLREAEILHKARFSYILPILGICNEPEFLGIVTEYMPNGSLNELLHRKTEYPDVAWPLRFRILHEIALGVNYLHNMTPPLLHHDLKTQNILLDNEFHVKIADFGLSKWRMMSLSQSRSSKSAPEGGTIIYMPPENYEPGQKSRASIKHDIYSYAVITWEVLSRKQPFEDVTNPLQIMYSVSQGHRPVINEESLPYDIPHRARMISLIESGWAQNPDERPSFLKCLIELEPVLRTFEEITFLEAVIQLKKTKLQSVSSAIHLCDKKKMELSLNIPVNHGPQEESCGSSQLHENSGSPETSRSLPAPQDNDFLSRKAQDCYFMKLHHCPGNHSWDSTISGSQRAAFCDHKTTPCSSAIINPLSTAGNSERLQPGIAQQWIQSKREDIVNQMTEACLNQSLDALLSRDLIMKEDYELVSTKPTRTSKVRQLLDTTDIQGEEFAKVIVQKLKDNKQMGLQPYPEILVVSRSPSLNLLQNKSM
UniProt Q9UEE5, whole entry: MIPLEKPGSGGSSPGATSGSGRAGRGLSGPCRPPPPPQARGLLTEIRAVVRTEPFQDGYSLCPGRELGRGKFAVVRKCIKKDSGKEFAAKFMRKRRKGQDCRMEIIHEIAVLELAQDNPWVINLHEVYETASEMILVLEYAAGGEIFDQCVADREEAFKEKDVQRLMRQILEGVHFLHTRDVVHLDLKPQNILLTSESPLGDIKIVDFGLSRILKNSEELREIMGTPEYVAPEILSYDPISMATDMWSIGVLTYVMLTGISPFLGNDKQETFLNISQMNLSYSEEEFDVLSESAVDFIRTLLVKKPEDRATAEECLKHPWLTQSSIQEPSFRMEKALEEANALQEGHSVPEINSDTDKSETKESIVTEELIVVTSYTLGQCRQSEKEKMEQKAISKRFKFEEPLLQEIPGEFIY
UniProt Q9BYT3, whole entry: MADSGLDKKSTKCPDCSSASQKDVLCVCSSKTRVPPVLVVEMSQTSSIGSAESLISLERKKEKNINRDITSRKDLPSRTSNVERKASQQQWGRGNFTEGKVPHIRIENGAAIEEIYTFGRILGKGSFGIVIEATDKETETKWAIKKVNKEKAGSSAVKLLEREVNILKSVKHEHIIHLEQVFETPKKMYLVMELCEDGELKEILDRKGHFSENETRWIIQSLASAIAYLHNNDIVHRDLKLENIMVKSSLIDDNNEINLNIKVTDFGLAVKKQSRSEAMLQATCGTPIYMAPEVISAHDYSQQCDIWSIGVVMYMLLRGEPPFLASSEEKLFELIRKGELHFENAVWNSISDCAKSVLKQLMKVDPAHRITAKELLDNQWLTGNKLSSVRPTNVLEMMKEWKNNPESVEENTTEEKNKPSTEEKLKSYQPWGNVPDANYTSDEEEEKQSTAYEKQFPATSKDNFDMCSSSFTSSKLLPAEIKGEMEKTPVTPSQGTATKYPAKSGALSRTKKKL
UniProt Q86UE8, whole entry: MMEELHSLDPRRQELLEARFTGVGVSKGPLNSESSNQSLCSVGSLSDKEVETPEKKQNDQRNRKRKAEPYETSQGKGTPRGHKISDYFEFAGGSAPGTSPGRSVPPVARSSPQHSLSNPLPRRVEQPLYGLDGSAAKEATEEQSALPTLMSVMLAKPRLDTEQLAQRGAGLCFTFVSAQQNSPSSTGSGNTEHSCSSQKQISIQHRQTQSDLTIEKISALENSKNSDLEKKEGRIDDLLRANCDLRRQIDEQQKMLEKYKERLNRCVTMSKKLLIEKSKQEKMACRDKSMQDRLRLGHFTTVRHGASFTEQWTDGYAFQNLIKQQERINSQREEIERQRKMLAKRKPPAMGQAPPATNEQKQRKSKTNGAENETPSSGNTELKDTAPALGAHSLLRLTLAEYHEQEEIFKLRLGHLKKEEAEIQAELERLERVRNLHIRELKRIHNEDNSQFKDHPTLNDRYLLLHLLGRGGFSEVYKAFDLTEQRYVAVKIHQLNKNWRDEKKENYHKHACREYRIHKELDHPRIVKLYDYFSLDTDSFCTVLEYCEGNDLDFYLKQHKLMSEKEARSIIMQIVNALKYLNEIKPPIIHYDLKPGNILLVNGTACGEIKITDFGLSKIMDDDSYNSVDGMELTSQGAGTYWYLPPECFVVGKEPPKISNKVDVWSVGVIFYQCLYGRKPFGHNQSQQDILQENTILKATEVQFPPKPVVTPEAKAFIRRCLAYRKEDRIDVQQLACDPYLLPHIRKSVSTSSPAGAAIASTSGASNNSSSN

For `Cc1nc(C(F)(F)F)c2c(C(N)=O)c(N)n(-c3c(C)ccc(O)c3C)c2n1` (single isomer, unassigned), the IC50 [1] was over 30 µM, the “Kinase selectivity (RB50 values)” value [2] was “highly selective for PKMYT1” and the “phospho-CDK1 Thr14 levels” value [3] was “concentration-dependent reduction of phospho-CDK1 Thr14 levels”. For the same compound, the “phospho-CDK1 Tyr15 expression (WEE1 substrate)” value [3] was “without affecting expression”, the “phospho-Histone H3 Ser10 expression” value [3] was “increased” and the “phosphorylation of phospho-CHK1, phospho-RPA2 (DNA damage biomarkers)” value [3] was “minimal to no phosphorylation”. The GI50 ([4]; read-out: GI50 VALUES, individual values, 7 days CTG) was 35.1 µM and 39.5 µM and 32.6 µM, the GI50 ([4]; read-out: MEAN GI50 (N = 3), mean of N = 3, 7 days CTG) was 35.8 µM and the AUC ([5]; DMSO/CAPTISOL/WFI) was 141.4 µM·h. For the same compound, the Cmax ([5]; DMSO/CAPTISOL/WFI) was 33.9 µM, the Tmax ([5]; DMSO/CAPTISOL/WFI) was 30 min and the AUC ([5]; HPMC/TWEEN 80) was 197.8 µM·h. The Cmax ([5]; HPMC/TWEEN 80) was 45.7 µM, the Tmax ([5]; HPMC/TWEEN 80) was 30 min and the “MEAN INHIBITION” value ([6]; 1 μM, KmATP) was 89.027%. The IC50 ([6]; 10-point CR, top 10 μM) was 0.167 µM, the “MEAN INHIBITION” value [7] was 0.515% and the “MEAN INHIBITION” value [8] was 7.831%. For the same compound, the “MEAN INHIBITION” value [9] was −4.586%, the “MEAN INHIBITION” value [10] was −5.323% and the “MEAN INHIBITION” value [11] was 3.217%. The “MEAN INHIBITION” value [12] was −0.183%, the “MEAN INHIBITION” value [13] was −5.417% and the “MEAN INHIBITION” value [14] was 13.629%. The “MEAN INHIBITION” value [15] was 2.190%, the “MEAN INHIBITION” value [16] was 1.546% and the “MEAN INHIBITION” value [17] was 27.550%. For the same compound, the “MEAN INHIBITION” value [18] was −1.153%, the “MEAN INHIBITION” value [19] was 11.103% and the “MEAN INHIBITION” value [20] was 5.334%. For the same compound, the “MEAN INHIBITION” value [21] was 1.290%, the “MEAN INHIBITION” value [22] was −2.537% and the “MEAN INHIBITION” value [23] was 7.591%. For the same compound, the “MEAN INHIBITION” value [24] was 1.158%, the “MEAN INHIBITION” value [25] was 0.548% and the “MEAN INHIBITION” value [26] was 3.226%. The “MEAN INHIBITION” value [27] was −9.807%, the “MEAN INHIBITION” value [28] was −1.113% and the “MEAN INHIBITION” value [29] was 5.482%. For the same compound, the “MEAN INHIBITION” value [30] was 17.820%, the “MEAN INHIBITION” value [31] was 2.440% and the “MEAN INHIBITION” value [32] was 12.833%. For the same compound, the “MEAN INHIBITION” value [33] was 0.307%, the “MEAN INHIBITION” value [34] was 0.564% and the “MEAN INHIBITION” value [35] was 19.173%. The “MEAN INHIBITION” value [36] was 1.585% and the “MEAN INHIBITION” value [37] was 16.812%.

From US20260384438A1, “PYRROLOPYRIMIDINE CARBOXAMIDES” (published 2026)
